# Measurements reported in PubChem BioAssay (Tox21).
# Protein sequences, listed by entry. Tags and fused reporters are not part of them.
# UniProt P11511, whole entry: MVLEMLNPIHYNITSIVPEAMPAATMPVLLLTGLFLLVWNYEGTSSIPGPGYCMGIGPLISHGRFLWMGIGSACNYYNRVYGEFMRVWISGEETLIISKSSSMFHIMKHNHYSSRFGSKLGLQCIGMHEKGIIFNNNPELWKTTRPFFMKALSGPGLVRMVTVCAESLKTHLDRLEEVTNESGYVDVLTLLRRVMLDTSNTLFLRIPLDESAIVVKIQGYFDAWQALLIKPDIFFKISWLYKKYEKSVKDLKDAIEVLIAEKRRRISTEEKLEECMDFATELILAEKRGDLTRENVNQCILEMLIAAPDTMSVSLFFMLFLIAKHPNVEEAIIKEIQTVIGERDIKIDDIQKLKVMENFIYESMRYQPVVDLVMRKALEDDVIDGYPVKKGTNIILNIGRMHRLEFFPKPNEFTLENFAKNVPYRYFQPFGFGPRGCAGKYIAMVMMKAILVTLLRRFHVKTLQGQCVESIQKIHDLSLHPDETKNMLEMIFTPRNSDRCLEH
# UniProt P04150, whole entry: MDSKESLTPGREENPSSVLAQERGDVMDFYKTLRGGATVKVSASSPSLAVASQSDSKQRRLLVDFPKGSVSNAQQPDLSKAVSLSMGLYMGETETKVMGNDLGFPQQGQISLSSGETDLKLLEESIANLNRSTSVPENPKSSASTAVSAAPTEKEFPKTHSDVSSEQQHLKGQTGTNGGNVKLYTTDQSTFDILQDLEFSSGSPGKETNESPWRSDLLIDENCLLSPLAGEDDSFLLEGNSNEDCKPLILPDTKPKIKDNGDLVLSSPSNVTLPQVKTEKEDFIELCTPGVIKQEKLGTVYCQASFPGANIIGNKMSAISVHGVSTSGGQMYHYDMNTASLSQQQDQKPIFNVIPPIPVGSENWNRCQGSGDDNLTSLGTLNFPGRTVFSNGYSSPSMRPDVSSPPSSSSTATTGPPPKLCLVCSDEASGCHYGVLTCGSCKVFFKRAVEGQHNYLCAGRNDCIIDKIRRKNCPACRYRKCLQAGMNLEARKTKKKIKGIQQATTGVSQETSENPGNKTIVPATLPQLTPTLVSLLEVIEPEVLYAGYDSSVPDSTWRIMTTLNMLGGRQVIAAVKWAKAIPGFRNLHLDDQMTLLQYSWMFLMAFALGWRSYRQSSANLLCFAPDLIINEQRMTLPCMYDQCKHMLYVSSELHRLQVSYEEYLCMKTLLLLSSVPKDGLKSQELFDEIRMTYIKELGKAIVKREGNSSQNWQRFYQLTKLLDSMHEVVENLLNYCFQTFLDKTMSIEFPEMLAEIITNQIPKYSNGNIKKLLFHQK
# UniProt P03372, whole entry: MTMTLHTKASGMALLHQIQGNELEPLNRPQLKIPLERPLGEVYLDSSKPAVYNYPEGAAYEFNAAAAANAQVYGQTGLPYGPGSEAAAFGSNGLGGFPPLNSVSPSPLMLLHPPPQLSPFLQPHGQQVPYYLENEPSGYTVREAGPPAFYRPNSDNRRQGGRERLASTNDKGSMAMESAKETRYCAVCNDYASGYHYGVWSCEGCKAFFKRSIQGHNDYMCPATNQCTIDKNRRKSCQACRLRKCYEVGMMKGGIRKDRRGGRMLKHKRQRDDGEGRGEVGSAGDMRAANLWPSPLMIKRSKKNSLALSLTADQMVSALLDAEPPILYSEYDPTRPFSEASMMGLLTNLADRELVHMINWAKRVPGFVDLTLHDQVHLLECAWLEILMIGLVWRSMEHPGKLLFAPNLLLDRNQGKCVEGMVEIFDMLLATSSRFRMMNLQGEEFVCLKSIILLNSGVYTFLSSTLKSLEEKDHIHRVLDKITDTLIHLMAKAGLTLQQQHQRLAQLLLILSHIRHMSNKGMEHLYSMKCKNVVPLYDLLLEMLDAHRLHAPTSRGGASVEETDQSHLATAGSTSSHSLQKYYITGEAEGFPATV
# UniProt Q14994, whole entry: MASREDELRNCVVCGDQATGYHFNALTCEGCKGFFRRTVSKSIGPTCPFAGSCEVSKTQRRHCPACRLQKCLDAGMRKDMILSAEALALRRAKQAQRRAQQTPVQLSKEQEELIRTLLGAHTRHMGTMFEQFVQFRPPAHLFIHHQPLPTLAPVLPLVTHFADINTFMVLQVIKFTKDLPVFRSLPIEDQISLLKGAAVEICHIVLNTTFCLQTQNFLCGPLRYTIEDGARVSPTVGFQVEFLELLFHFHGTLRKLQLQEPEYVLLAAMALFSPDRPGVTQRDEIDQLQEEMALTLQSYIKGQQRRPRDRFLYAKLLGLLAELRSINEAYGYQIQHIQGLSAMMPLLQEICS
# The entries are a selection whose mix differs from that of the whole data set. Inconclusive results are not listed. The source made the active and inactive calls. Unless noted, calls follow the shape of the dose curve; as a rule, active = well fitted curve in the direction sought with a large enough effect in the repeat runs; inconclusive = weak or mixed curves; inactive = no such curve, though single readings can be large; an effect the other way counts as inactive or inconclusive.
# Assays:
# [1] = target: Aromatase (Homo sapiens) (UniProt P11511); experiment: qHTS assay to identify aromatase inhibitors (AID 743083); also: nearly all actives have a fitted effect of over 55% in size; also: potency is read from the fitted curve at half-maximal effect
# [2] = qHTS assay to identify aromatase inhibitors - cell viability counter screen (AID 743084);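 also: cells stimulated with testosterone during compound exposure; nearly all actives have a fitted effect of over 55% in size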; also: potency is read from the fitted curve at half-maximal effect
# [3] = qHTS RealTime-Glo MT Cell Viability Assay in HepG2 cells - 32 hour (AID 1224877); also: % is scaled to controls: 0 for no effect and ±100 for the full control effect; nearly all actives have a fitted effect of over 55% in size
# Summary of the method: (§1)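 HepG2 cells were seeded at 600 cells/well together with NanoLuc luciferase and a cell-permeant prosubstrate, preincubated 5 h at 37 C/5% CO2, then pin-dosed with compounds in DMSO. Nonlytic luminescence from viable cells was read at each time point.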
# [4] = qHTS assay to identify small molecule antagonists of the androgen receptor (AR) signaling pathway using the MDA cell line in the presence of 0.5 nM R1881 - cell viability counter screen (AID 1259242); also: % is scaled to controls: 0 for no effect and ±100 for the full control effect; nearly all actives have a fitted effect of over 45% in size
# Summary of the method: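 R1881 at 0.5 nM final stimulated MDA-kb2 cells during 16 hr compound treatment at 37C. Cytotoxicity read: CellTiter-Fluor fluorescence after 30 min.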
# [5] = qHTS assay to identify small molecule antagonists of the estrogen related receptor (ERR) signaling pathway from Tox21 library - cell viability counter screen (AID 1224834); also: % is scaled to controls: 0 for no effect and ±100 for the full control effect; nearly all actives have a fitted effect of over 30% in size
# Summary of the method: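 CellTiter-Fluor fluorescence measured; ERR cells; 17.5 h compound incubation at 37 C; 30 min reagent step.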
# [6] = A CellTox Green Cytotoxicity Assay to monitor cytotoxicity in HepG2 cells - 0 hour (AID 1224882); details: CellTox Green fluorescence; at 76.8 µM (top of the series); also: % is scaled to controls: 0 for no effect and ±100 for the full control effect; nearly all actives have a fitted effect of over 35% in size
# Summary of the method: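 Nonlytic assay: viable cells exclude the dye, so fluorescence scales with cell death. HepG2 at 600 cells/well, compounds added after 5 h, signal read across 40 h.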
# [7] = qHTS assay to identify small molecule antagonists of the sonic hedgehog signaling (Shh) pathway - cell viability counter screen (AID 1259367); details: NIH/3T3 Gli1-Luc viability, CellTiter-Fluor, 24 h; also: potency is read from the fitted curve at half-maximal effect; nearly all actives have a fitted effect of over 55% in size
# Summary of the method: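 NIH/3T3-derived Gli1-Luc reporter cells (2,000 per well) rested 4 hr at 37 C, then received DMSO compounds plus conditioned medium. After 23 hr of treatment, CellTiter-Fluor was added for 1 hr at 37C and fluorescence read.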
# [8] = qHTS assay to identify small molecule antagonists of the estrogen related receptor signaling pathway with the pleiotropic PPARgamma coactivator (PGC) from Tox21 10K library (AID 1224841; call rule not given here; also: potency is read from the fitted curve at half-maximal effect; actives are mostly falling curves and most rising ones were filed inactive; nearly all actives have a fitted effect of over 50% in size); details: PGC/ERR reporter cell line, ONE-Glo luciferase, 18 h
# [9] = qHTS assay to identify small molecule agonists of the endoplasmic reticulum stress response signaling pathway - cell viability counter screen (AID 1159517; calls by dose curve;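 also: HeLa cells carrying an ER stress response element beta-lactamase reporter; % is scaled to controls: 0 for no effect and ±100 for the full control effect; nearly all actives have a fitted effect of over 50% in size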)
# Summary of the method: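 Luminescence readout: CellTiter-Glo, 30 min RT, same wells as the ESRE-bla reporter read. HeLa ESRE-bla, 1,500 cells/well, o/n 37 C; cpd 5 hr 37 C/5% CO2.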
# [10] = qHTS assay to identify small molecule agonists or antagonists of the thyroid stimulating hormone receptor (TSHR) signaling pathway - wild type cell line counter screen (AID 1259384; calls by dose curve; also: % is scaled to controls: 0 for no effect and ±100 for the full control effect); details: HEK293 wild type, cAMP HTRF counter-screen, active compounds read high; at 92.4 µM (top of the series)
# Summary of the method: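 Wild-type HEK293 cells were plated 18 h at 37 C/5% CO2, pin-dosed with compound plus Ro20-1724 medium, held 30 min at room temperature, then given cAMP-d2 and anti-cAMP-cryptate; fluorescence was read after 1 h. Fifteen concentrations, triplicate.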
# [11] = target: Glucocorticoid receptor (Homo sapiens) (UniProt P04150); experiment: qHTS assay to identify small molecule antagonists of the glucocorticoid receptor (GR) signaling pathway (AID 720692; active = well fitted inhibition curve with a large enough effect in the signal ratio in the repeat runs, not every such curve was filed as active; the % refers to the signal ratio; also: % is scaled to controls: 0 for no effect and ±100 for the full control effect); details: GR-bla HeLa, beta-lactamase FRET ratio, dexamethasone-stimulated, 18 h; at 58.5 µM (top of the series)
# [12] = qHTS assay to identify small molecule agonists of the peroxisome proliferator-activated receptor delta (PPARd) signaling pathway - cell viability counter screen (AID 743211)
# Summary of the method: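 PPARd-bla HEK293H cells (UAS-beta-lactamase reporter) were treated with compounds for 17 h at 37 C. Viability was then read in the same wells by CellTiter-Glo luminescence after 30 min at room temperature.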
# [13] = qHTS RealTime-Glo MT Cell Viability Assay in HepG2 cells - 24 hour (AID 1224867); also: % is scaled to controls: 0 for no effect and ±100 for the full control effect; nearly all actives have a fitted effect of over 50% in size
# Summary of the method: as §1
# [14] = target: Estrogen receptor (Homo sapiens) (UniProt P03372); experiment: qHTS assay to identify small molecule antagonists of the estrogen receptor alpha (ER-alpha) signaling pathway using the BG1 cell line in the presence of 0.1 nM 17-beta-estradiol (AID 1259244); details: VM7Luc4E2 (BG1) ERE-luciferase, antagonist mode, 0.1 nM E2, 22 h; also: potency is read from the fitted curve at half-maximal effect; nearly all actives have a fitted effect of over 50% in size
# [15] = Caspase-3/7 induction in CHO-K1 cells by small molecules, qHTS cell viability counter screen (AID 1346979); also: nearly all actives have a fitted effect of over 35% in size; also: potency is read from the fitted curve at half-maximal effect
# Summary of the method: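 Wild-type CHO-K1 cells were seeded at 1,500 per well, rested 5hr at 37 C, then exposed to compounds in DMSO. After 16hr, CellTiter-Fluor reagent was added and fluorescence read 1hr later as the viability measure.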
# [16] = qHTS assay to test for compound auto fluorescence at 590 nm (red) in HEK293 cell free culture (AID 720683); details: cell-free medium autofluorescence, Ex540/Em590 red; at 91.3 µM (top of the series); also: % is scaled to controls: 0 for no effect and ±100 for the full control effect
# Summary of the method: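 Tox21 10K library compounds were pinned into cell-free DMEM with 10% FBS and fluorescence was read at excitation 540 nm. Activity is expressed as Rose Bengal sodium equivalency.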
# [17] = qHTS assay for identifying genotoxic compounds that show differential cytotoxicity against isogenic chicken DT40 cell lines with known DNA damage response pathways - Rad54/Ku70 mutant cell line (AID 743015); details: DT40 Rad54/Ku70 mutant viability, CellTiter-Glo, 40 h; also: potency is read from the fitted curve at half-maximal effect; nearly all actives have a fitted effect of over 60% in size
# From the text: National Center for Advancing Translational Sciences [NCATS]
# NIH Chemical Genomics Center [NCGC]
# U.S. Environmental Protection Agency [EPA]
# National Institutes of Environmental Health Sciences [NIEHS]
# National Toxicology Program [NTP]
# U.S. Food and Drug Administration [FDA]
# DNA repair pathways play a critical role in cellular homeostasis by repairing DNA damage induced by endogenous processes and xenobiotics. Isogenic chicken DT40 cell lines deficient in different DNA repair pathways can be used to identify genotoxic compounds and aid in characterizing the nature of the DNA damage induced. Two DNA repair-deficient cell lines with disrupted genes, Rad54/Ku70 or Rev3, were used to screen the Tox21 10K compound library. Possible genotoxicity was based on the presence of a significant increase in cytotoxicity in one or more of the DNA repair-deficient cell lines compared to that observed in the parental DNA repair-proficient cell line. CellTiter Glo viability assay (Promega, Madison, WI) was used to measure cell viability in these cells after compound treatment. This assay includes the data from the Rad54/Ku70 mutant cell line.
# Tox21 Assay Protocol Summary:
# 300 DT40 mutant cells in 5 uL/well were dispensed into white, solid-bottom 1536-well plates using a Multidrop Combi (ThermoFisher Scientific, Waltham, MA) dispenser. After the assay plates were incubated at 37 C/5% CO2 for approximately 0.5 hour, 23 nL of compounds dissolved in DMSO, positive controls or DMSO only was transferred into the assay plate by a pintool work station (Kalypsys, San Diego, CA). The assay plates were incubated at 37 C/5% CO2 for 40 hours. After 5 uL per well of CellTiter-Glo reagent was added into each well of the assay plates, the plates were incubated for 30 min at room temperature and the luminescence intensity of the plates was measured using a ViewLux (PerkinElmer, Shelton, CT) plate reader.
# [18] = qHTS assay to identify small molecule antagonists of the thyroid receptor (TR) signaling pathway (AID 743065); details: GH3.TRE-Luc, T3-stimulated luciferase inhibition, 23.5 h
# Summary of the method: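 GH3.TRE-Luc rat pituitary cells carrying two TR response elements driving luciferase were plated for 4 h, given compound plus 1 nM T3 (final), and incubated 23.5 h at 37 C. ONE-Glo luminescence measured reporter inhibition; CellTiter-Fluor fluorescence tracked cytotoxicity.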
# [19] = qHTS assay to identify small molecule antagonists of the constitutive androstane receptor (CAR) signaling pathway - cell viability counter screen (AID 1224837); also: % is scaled to controls: 0 for no effect and ±100 for the full control effect; nearly all actives have a fitted effect of over 45% in size
# Summary of the method: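 Using CellTiter-Fluor, viability is scored in HepG2 cells stably carrying hCAR and a 2.2kb CYP2B6 reporter after 23 hr compound exposure across 15 concentrations, with CITCO present at 50 nM.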
# [20] = target: Nuclear receptor subfamily 1 group I member 3 (Homo sapiens) (UniProt Q14994); experiment: qHTS assay to identify small molecule antagonists of the constitutive androstane receptor (CAR) signaling pathway (AID 1224838); details: HepG2-CYP2B6-hCAR luciferase, CITCO-stimulated, 24 h;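 also: HepG2 cells stably expressing hCAR with CYP2B6 luciferase reporter stimulated by CITCO; potency is read from the fitted curve at half-maximal effect; nearly all actives have a fitted effect of over 40% in size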
smiles,measurement,setting,value
O=[N+]([O-])[O-].[NH4+],Potency,[1],inactive
same,Potency,[2],inactive
same,Potency,[3],inactive
same,Potency,[4],inactive
CCN(CC)CCCl,Potency,[5],inactive
same,cytotoxicity,[6],inactive: 1.06%
same,Potency,[7],active: 12.4 µM
O=C(Cl)Oc1ccccc1,Potency,[8],active: 54.5 µM
Cc1cccc([N+](=O)[O-])c1[N+](=O)[O-],Potency,[9],inactive
O=C(Cl)OCCOC(=O)Cl,Potency,[8],active: 10.9 µM
same,cAMP activity change,[10],inactive: -1.41%
CCOP(=S)(CC)Sc1ccccc1 (stereo not given),"activity change, negative = inhibition",[11],inactive: 11.3%
CC(C)OP(C)(=O)OC(C)C,Potency,[12],inactive
same,Potency,[8],active: 27.3 µM
same,Potency,[13],inactive
same,Potency,[14],active: 27.3 µM
same,Potency,[15],inactive
CN(N=O)C(=N)N[N+](=O)[O-],"fluorescence, % of fluorescent control",[16],inactive: -0.18%
same,Potency,[17],active: 15.3 µM
same,Potency,[18],active: 60.8 µM
same,Potency,[1],active: 68.2 µM
same,Potency,[2],active: 68.2 µM
same,Potency,[19],inactive
same,Potency,[20],active: 17.1 µM
same,Potency,[15],active: 48.3 µM
